# Target: Gal4 DNA binding domain fused to the LBD of LXRβ in HEK293 cells (Homo sapiens (Human), UniProt P55055)
# By UniProt entry, the sequences of proteins in these tests, tags left out. Residues count along the entry.
# UniProt P55055, 222-460 limits assumed: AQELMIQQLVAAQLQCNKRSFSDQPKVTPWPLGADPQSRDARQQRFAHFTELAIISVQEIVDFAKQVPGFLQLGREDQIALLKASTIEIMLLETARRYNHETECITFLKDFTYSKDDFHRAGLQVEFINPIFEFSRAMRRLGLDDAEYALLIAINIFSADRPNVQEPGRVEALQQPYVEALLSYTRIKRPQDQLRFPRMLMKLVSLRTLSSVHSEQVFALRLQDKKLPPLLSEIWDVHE
# Experiment: LXR luciferase transcriptional reporter gene assay, agonist mode, LXRβ
# Type: cell-based
row,Compound,Cell LXRβ efficacy
1,"CC(C)[C@@H]1CN(c2ccc(F)c(S(C)(=O)=O)c2)CCN1C(=O)OC(C)(C)C(F)(F)F [5-2, 1,1,1-trifluoro-2-methylpropan-2-yl (R)-4-(4-fluoro-3-(methylsulfonyl)phenyl)-2-isopropylpiperazine-1-carboxylate]",111 (49) %
2,"CC(C)[C@@H]1CN(c2ccc(F)c(S(C)(=O)=O)c2)CCN1C(=O)OC(C)C(F)(F)F (stereo partly drawn) [5-3, 1,1,1-trifluoropropan-2-yl (2R)-4-(4-fluoro-3-(methylsulfonyl)phenyl)-2-isopropylpiperazine-1-carboxylate]",198 (58) %
3,"CC(C)[C@@H]1CN(c2ccc(F)c(S(C)(=O)=O)c2)CCN1C(=O)OCC(F)(F)F [5-4, 2,2,2-trifluoroethyl (R)-4-(4-fluoro-3-(methylsulfonyl)phenyl)-2-isopropylpiperazine-1-carboxylate]",732 (32) %
4,"CC(C)[C@@H]1CN(c2ccc(F)c(S(C)(=O)=O)c2)CCN1C(=O)OC1CC(F)(F)C1(F)F (stereo partly drawn) [Cpd No 5-1, 2,2,3,3-tetrafluorocyclobutyl (2R)-4-(4-fluoro-3-(methylsulfonyl)phenyl)-2-isopropylpiperazine-1-carboxylate]",272 (63) %

# Reference: US10144715B2, “Piperazine derivatives as liver X receptor modulators” (priority 2014, dated 2018)
